{"sequences": {"note": "The chains behind the UniProt entries cited, without tags or fusion partners.", "UniProt Q9Y5X4, whole entry": "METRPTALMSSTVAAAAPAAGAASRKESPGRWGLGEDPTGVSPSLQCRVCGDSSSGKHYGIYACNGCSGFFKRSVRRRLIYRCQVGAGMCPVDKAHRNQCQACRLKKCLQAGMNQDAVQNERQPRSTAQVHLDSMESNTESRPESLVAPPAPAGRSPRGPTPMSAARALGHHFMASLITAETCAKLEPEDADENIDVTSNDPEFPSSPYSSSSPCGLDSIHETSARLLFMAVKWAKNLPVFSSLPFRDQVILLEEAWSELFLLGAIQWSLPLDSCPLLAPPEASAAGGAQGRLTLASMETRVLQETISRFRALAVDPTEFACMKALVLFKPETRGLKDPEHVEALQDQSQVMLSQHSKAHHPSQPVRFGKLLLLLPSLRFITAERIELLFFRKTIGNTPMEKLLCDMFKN"}, "source": "PubChem BioAssay AID624378", "about": "(The Scripps Research Institute Molecular Screening Center, 2012)", "note": "This is a selection; strong and weak results do not stand in their true shares. The source made the active and inactive calls.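 How the source made its calls: active means average inhibition above a cutoff equal to the mean inhibition of all tested compounds plus one SD (cut at about 70% in these data); inactive means the rest.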"}
{"target": "Photoreceptor-specific nuclear receptor (Homo sapiens) (UniProt Q9Y5X4)", "assay": "NR2E3 agonist confirmation in cells, cell-based, luminescence, CHO-S two-hybrid (AID 624378);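 further: 0% = DMSO in NR2E3 cells and 100% = DMSO in cells lacking NR2E3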", "settings": "CHO-S mammalian two-hybrid NR2E3-NCOR, luciferase luminescence; at 3.98 µM; hits give high values"}
{"smiles": "CCCCn1nnnc1C(c1ccccc1OC(F)(F)F)N1CCC(n2c(=O)[nH]c3ccccc32)CC1", "note": "(stereo unspecified)", "inhibition": "inactive: 52.5%"}
